One molecule from patent publication US20080269114A1, “Y4 Selective Receptor Agonists For Thereapeutic Interventions” (priority 2004, published 2008) can be followed below.

The target in assay [1] is human Y4 receptor (human), P50391. Put plainly: competition binding, displacement of 125I-PP, COS-7 cells with human Y4. On the technique in general: Loss of bound radioactivity is the signal in a displacement assay; it reports binding, not function.
Assay [2] shares this target. Put plainly: cell-based or functional assay.

As to ACLEPVYPGDNATPEQMAQYAADLRRCINMLTRPRY (modifications not checked) [[Cys2,D-Cys27]PP], in assay [1], the IC50 came out at 8.2 nM. In assay [2], this molecule came in with an EC50, inositol phosphate turnover of 4.6 nM.

What is called IC50 is the point on the concentration scale where inhibition reaches its midpoint. Higher therefore signals weaker potency in that assay.
